Antibody variant affinities, Ab-14 light chain, assay 1

From the AlphaSeq antibody data of Engelhart et al. 2022 (doi:10.1038/s41597-022-01779-4), copy in the FLAb collection.

Target peptide (SARS-CoV-2 spike, HR2 region): PDVDLGDISGINAS

Parent scFv Ab-14: VH joined to VL by three GGGGS repeats. Changes lie in the light chain CDRs alone.
VH: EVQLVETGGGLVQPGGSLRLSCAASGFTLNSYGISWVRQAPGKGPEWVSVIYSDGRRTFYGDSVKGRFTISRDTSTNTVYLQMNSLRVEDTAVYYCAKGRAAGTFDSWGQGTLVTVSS
VL: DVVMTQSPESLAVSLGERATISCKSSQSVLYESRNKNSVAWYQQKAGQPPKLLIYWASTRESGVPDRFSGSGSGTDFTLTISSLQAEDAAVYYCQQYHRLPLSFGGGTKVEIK

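Phage display of a naive human antibody library on the peptide gave the parent. Variants in AAYL50 differ from the parent at up to three CDR positions; double and triple changes were sampled at random. In AlphaSeq, yeast of one mating type display the scFv and yeast of the other type display the target. Pairs that bind mate more often; barcode pairs of the diploids are counted by sequencing. The ratio of observed to expected reads was calibrated, replicate by replicate, on BCL2-family standards whose Kd was known from biolayer interferometry. There are three technical replicates.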

The whole VL of each variant is written out.
This list gathers variants with a substitution at S33 (VL, numbered from residue 1).
The Kd shown is the geometric mean over detected replicates; a lower Kd is a better binder.
A pair that was not seen in any replicate is written "no signal"; this usually means weak binding, but a binder can also be missed.
Parent in this assay: reference entry 4.4 nM, copy in this library 48 nM.

Variant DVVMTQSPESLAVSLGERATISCKSSQSVLYEWRNKLSVAWYQQKAGQPPKLLIYWASTRESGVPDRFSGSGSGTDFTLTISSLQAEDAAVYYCQQHHRLPLSFGGGTKVEIK showed 12 µM (1 of 3 replicates).
Variant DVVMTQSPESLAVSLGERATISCKSSQSVLYECRNKNSVRWYQQKAGQPPKLLIYWASTRESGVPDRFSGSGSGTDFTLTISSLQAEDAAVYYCQQYHRLPLKFGGGTKVEIK showed no signal (0 of 3 replicates).
Variant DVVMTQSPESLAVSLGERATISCKSSQSKLYEDRNKNSVAWYQQKAGQPPKLLIYWASTRESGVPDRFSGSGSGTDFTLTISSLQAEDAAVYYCQQYHRLPLSFGGGTKVEIK showed 980 nM (3 of 3 replicates).
Variant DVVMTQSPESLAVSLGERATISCKSSQSVLYEYRNANNVAWYQQKAGQPPKLLIYWASTRESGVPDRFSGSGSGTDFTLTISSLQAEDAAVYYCQQYHRLPLSFGGGTKVEIK showed 5.5 nM (3 of 3 replicates).
Variant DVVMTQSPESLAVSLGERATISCKSSQSVLYECRNKNSCAWYQQKAGQPPKLLIYWASCRESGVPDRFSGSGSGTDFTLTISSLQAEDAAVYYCQQYHRLPLSFGGGTKVEIK showed 27 µM (1 of 3 replicates).
Variant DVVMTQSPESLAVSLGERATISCKSSQSVLYENRNKNQVAWYQQKAGQPPKLLIYWASTHESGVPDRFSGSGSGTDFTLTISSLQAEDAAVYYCQQYHRLPLSFGGGTKVEIK showed no signal (0 of 3 replicates).
Variant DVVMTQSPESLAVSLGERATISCKVSQSVLYEDRNKNSVAWYQQKAGQPPKLLIYEASTRESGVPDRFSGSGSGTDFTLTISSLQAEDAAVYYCQQYHRLPLSFGGGTKVEIK showed 460 pM (3 of 3 replicates).
Variant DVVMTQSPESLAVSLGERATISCKSSQSVLYEMRNKNSVAWYQQKAGQPPKLLIYWASTRESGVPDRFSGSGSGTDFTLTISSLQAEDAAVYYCQQYWRLPDSFGGGTKVEIK showed 310 nM (2 of 3 replicates).
Variant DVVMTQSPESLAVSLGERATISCKSSQSVLYERRNKLSVAWYQQKAGQPPKLLIYWASTRESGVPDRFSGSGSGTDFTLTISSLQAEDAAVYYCQQYHRLPLSFGGGTKVEIK showed no signal (0 of 3 replicates).
Variant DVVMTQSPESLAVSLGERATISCKSSQSVLYLNRNKNLVAWYQQKAGQPPKLLIYWASTRESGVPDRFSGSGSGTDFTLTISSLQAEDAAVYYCQQYHRLPLSFGGGTKVEIK showed 630 nM (2 of 3 replicates).
Variant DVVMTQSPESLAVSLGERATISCKSSQSVLYEPRNKNSVAWYQQKAGQPPKLLIYWASTRESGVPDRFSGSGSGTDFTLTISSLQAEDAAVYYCDMYHRLPLSFGGGTKVEIK showed no signal (0 of 3 replicates).
Variant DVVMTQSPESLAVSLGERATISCKSFQSVLYEARNKNSVAWYQQKAGQPPKLLIYWASTRESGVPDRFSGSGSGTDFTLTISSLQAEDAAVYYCQQYHRLPNSFGGGTKVEIK showed 17 µM (3 of 3 replicates).
Variant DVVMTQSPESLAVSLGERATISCQSSQSVLSEKRNKNSVAWYQQKAGQPPKLLIYWASTRESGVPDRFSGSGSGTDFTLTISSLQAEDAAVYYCQQYHRLPLSFGGGTKVEIK showed 93 nM (3 of 3 replicates).
Variant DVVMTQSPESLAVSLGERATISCKSSQCVLYEQRNKNSVAWYQQKAGQPPKLLIYWASTRNSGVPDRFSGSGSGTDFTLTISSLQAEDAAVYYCQQYHRLPLSFGGGTKVEIK showed 1.3 µM (2 of 3 replicates).
Variant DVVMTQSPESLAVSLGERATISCKSSQSVLYETRNKNSVAWYQQKAGQPPKLLIYWASTTESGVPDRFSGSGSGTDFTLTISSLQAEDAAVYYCQQYHRLPLSFGGGTKVEIK showed 3.6 µM (3 of 3 replicates).
Variant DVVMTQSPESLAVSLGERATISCKSSQSVLYEARNKNSSAWYQQKAGQPPKLLIYWASTRESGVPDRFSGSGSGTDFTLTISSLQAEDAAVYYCQQYHRLYLSFGGGTKVEIK showed 1.1 mM (1 of 3 replicates).
Variant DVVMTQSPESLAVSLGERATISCISSQSVLYETRNKNSVAWYQQKAGQPPKLLIYWAATRESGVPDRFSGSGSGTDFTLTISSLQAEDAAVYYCQQYHRLPLSFGGGTKVEIK showed 360 nM (3 of 3 replicates).
Variant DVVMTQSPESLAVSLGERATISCKSSQSVEYEQRAKNSVAWYQQKAGQPPKLLIYWASTRESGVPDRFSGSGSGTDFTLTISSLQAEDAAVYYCQQYHRLPLSFGGGTKVEIK showed 6.9 nM (3 of 3 replicates).
Variant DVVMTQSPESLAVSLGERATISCKSSQSVCYETRNKNCVAWYQQKAGQPPKLLIYWASTRESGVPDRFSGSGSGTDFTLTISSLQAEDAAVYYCQQYHRLPLSFGGGTKVEIK showed no signal (0 of 3 replicates).
Variant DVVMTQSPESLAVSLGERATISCKSNQSVLVEARNKNSVAWYQQKAGQPPKLLIYWASTRESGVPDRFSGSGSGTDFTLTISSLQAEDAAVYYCQQYHRLPLSFGGGTKVEIK showed 15 nM (3 of 3 replicates).

For reference, 3 entries of the list once more:

| VL | apparent Kd | seen in |
|---|---|---|
| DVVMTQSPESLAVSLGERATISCKSFQSVLYEARNKNSVAWYQQKAGQPPKLLIYWASTRESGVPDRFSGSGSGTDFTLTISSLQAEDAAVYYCQQYHRLPNSFGGGTKVEIK | 17 µM | 3 of 3 |
| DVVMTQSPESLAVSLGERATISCKSSQSVEYEQRAKNSVAWYQQKAGQPPKLLIYWASTRESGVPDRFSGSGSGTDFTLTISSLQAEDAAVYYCQQYHRLPLSFGGGTKVEIK | 6.9 nM | 3 of 3 |
| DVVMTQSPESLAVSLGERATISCKSSQSVLYEWRNKLSVAWYQQKAGQPPKLLIYWASTRESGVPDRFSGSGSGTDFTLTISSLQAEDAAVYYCQQHHRLPLSFGGGTKVEIK | 12 µM | 1 of 3 |

Three control strains display no target. For library AAYL50, 18% of the pairings with them gave a signal, with a median of 15 µM and one signal in twenty below 970 nM, so weak values seen in few replicates may be background.